Data on one molecule can be found in ChEMBL document CHEMBL5113488, “Design, synthesis and antitumor activity study of a gemcitabine prodrug conjugated with a HDAC6 inhibitor” (Bioorg Med Chem Lett, 2022).

Amino acid sequences for entries named in this document (tags omitted). A change or cut given only in a name is not applied to a line headed by its entry.
UniProt P04798: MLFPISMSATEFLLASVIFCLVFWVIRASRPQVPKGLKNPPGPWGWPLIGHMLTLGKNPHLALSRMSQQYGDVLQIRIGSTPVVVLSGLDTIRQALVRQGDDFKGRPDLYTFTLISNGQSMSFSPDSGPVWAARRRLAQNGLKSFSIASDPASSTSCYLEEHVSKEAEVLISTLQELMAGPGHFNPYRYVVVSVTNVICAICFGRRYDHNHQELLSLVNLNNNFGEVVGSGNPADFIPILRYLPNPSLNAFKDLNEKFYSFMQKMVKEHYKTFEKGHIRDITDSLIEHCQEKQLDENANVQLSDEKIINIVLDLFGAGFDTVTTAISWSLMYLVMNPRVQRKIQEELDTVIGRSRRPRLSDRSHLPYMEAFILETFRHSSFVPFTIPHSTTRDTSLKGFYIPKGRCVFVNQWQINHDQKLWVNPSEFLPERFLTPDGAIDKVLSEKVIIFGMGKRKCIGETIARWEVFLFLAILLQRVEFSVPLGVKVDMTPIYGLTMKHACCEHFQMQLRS
UniProt P05177: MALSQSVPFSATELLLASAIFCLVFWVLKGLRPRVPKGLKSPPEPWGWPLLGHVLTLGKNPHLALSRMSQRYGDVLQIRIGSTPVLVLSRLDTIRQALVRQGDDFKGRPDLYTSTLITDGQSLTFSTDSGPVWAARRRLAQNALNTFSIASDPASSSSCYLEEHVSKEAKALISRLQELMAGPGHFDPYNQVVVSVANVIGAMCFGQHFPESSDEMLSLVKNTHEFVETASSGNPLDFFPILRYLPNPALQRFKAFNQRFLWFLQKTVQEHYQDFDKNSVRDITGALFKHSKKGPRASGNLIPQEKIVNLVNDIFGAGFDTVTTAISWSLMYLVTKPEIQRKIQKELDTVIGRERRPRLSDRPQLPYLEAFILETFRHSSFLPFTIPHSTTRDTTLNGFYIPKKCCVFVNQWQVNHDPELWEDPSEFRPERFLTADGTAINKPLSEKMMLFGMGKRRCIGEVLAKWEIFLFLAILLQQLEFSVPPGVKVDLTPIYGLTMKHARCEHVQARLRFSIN

The data set deals with Cytochrome P450 1A (Homo sapiens, UniProt P04798+P05177). Nature of the data set: Inhibition of CYP1A1/2-mediated metabolite formation in rat liver microsomes assessed as reduction in N-(1-((2R,4R,5R)-3,3-difluoro-4-hydroxy-5-(hydroxymethyl)tetrahydrofuran-2-yl)-2-oxo-1,2-dihydropyrimidin-4-yl)pentadecanamide metabolism. The class given is ADME, Microsome.

On to `O=c1cc(-c2ccccc2)oc2c1ccc1ccccc12` [ALPHA-NAPHTHOFLAVONE], for which the “inhibition (INH)” value is on record as “Active”.
